Assays:
[1] = CHI lipophilicity by gradient reversed-phase HPLC (Gemini NX-C-18); conditions: pH 7.4
[2] = Phospholipid binding at pH 7.4 on IAM PC.DD2 HPLC column
[3] = Charge character of the drugs at pH 7.4
[4] = molecular target: human serum albumin (HSA) (Homo sapiens, UniProt P02768); conditions: pH 7.4, Chiralpak HSA
[5] = pH 7.4, derived from CHI IAM by equation 1

The chains behind the UniProt entries cited, without tags or fusion partners. Residues count along the entry.
UniProt P02768, 25-609: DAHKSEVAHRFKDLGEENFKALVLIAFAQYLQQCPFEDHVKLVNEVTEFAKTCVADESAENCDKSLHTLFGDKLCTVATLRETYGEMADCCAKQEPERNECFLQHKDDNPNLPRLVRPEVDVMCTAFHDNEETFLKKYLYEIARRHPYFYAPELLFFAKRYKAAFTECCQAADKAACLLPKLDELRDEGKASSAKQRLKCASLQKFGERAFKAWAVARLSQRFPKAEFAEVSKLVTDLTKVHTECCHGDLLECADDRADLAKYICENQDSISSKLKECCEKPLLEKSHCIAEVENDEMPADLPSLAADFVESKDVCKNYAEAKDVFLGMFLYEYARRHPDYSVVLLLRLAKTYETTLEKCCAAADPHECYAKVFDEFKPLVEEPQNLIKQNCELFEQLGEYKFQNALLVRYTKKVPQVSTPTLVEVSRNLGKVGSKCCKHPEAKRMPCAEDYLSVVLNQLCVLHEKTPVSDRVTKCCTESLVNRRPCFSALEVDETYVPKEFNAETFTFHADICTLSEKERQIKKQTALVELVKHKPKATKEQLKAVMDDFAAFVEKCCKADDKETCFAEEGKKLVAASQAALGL

Substance | CHI log D7.4 [1] | CHI IAM ([2]; pH 7.4) | log k IAM [2, 5] | Charge [3] | log k IAM ([2]; pH 7.4) | log k HSA [4]
Prazosin | 1.09 | 26.32 | 1.63 | Weak Base |  | 
Imipramine | 2.05 | 39.44 |  | Basic | 2.23 | 
Propafenone |  |  |  |  | 2.54 | 
Alfuzosin | 0.79 | 34.60 | 1.98 | Weak Base |  | 
Nicotine | 0.12 | 13.79 |  | Weak Base | 1.05 | -0.03
Desloratadine | 1.32 | 54.56 | 2.93 |  |  | 

Reference: paper PMC8920097, “Prediction of hERG inhibition of drug discovery compounds using biomimetic HPLC measurements” (ADMET & DMPK, 2021)
